One molecule from US20060205037A1, “Modified transferrin fusion proteins” (priority 2003, published 2006) can be followed below.

The assay concerns the target T1, rat GLP-1 receptor (Rattus norvegicus, UniProt P32301).
T1 construct: expressed in transfected cells; host or cells: CHO cells
T1 sequence (P32301 22-463): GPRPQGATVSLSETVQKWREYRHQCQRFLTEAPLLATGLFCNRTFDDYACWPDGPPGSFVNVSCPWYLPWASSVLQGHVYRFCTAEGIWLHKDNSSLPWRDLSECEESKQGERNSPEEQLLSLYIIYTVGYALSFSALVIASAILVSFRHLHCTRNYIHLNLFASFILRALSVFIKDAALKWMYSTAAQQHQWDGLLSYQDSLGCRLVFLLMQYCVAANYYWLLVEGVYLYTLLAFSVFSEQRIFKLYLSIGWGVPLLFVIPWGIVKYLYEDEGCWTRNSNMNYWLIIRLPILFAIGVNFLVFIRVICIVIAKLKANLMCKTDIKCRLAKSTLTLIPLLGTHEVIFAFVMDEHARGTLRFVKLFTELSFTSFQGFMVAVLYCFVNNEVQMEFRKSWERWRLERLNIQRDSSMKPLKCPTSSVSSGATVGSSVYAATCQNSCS
As to the kind of experiment: cAMP assay of fermented GLP-1/linker/mTf constructs. Type of assay: cell-based.

B1: pREX0585: nL GLP-1 (7-37; A8G, K34A) (PEAPTD)2 mTf; mTf lacking N-glycosylation at sites 413 and 611 (protein)
chain: HGEGTFTSDVSSYLEGQAAKEFIAWLVAGRGPEAPTDPEAPTDVPDKTVRWCAVSEHEATKCQSFRDHMKSVIPSDGPSVACVKKASYLDCIRAIAANEADAVTLDAGLVYDAYLAPNNLKPVVAEFYGSKEDPQTFYYAVAVVKKDSGFQMNQLRGKKSCHTGLGRSAGWNIPIGLLYCDLPEPRKPLEKAVANFFSGSCAPCADGTDFPQLCQLCPGCGCSTLNQYFGYSGAFKCLKDGAGDVAFVKHSTIFENLANKADRDQYELLCLDNTRKPVDEYKDCHLAQVPSHTVVARSMGGKEDLIWELLNQAQEHFGKDKSKEFQLFSSPHGKDLLFKDSAHGFLKVPPRMDAKMYLGYEYVTAIRNLREGTCPEAPTDECKPVKWCALSHHERLKCDEWSVNSVGKIECVSAETTEDCIAKIMNGEADAMSLDGGFVYIAGKCGLVPVLAENYNKADNCEDTPEAGYFAVAVVKKSASDLTWDNLKGKKSCHTAVGRTAGWNIPMGLLYNKINHCRFDEFFSEGCAPGSKKDSSLCKLCMGSGLNLCEPNNKEGYYGYTGAFRCLVEKGDVAFVKHQTVPQNTGGKNPDPWAKNLNEKDYELLCLDGTRKPVEEYANCHLARAPNHAVVTRKDKEACVHKILRQQQHLFGSNVADCSGNFCLFRSETKDLLFRDDTVCLAKLHDRNTYEKYLGEEYVKAVGNLRKCSTSSLLEACTFRRP
modifications: GLP-1-tf fusion protein
As for B1, under “conclusions of Example 2”, the “potency (conclusions in words)” value is reported as “greatest improvement in potency”. Further, under “running text of Example 2, read-out: EC50 / potency in cAMP assay”, the EC50 was 3 nM.
